Data from patent US12365687B2 (Hoffmann-La Roche Inc., priority 2021, dated 2025).

Key:
[1] = biological target: human GABAA α5β2γ1 receptor (Homo sapiens (Human), UniProt P31644+Q8N1C3); assay: Radioligand binding assay for γ1-containing GABAA subtypes, [3H]RO7239181 competition (α5β2γ1)
Method: (§1) The affinity of compounds at GABAA γ1 subunit-containing receptors was measured by competition for [^3H]RO7239181 (67.3 Ci/mmol; Roche) binding to membranes from HEK293F cells (ThermoFisher R79007) expressing human (transiently transfected) receptors of composition α5β2γ1, α2β2γ1, α1β2γ1.
(§2) Harvested pellets from HEK293F cells expressing the different GABAA receptor subtypes were resuspended in Mannitol Buffer pH 7.2-7.4 (Mannitol 0.29 M, Triethylamine 10 mM, Acetic acid 10 mM, EDTA 1 mM plus protease inhibitors (20 tablets Complete, Roche Diagnostics Cat. No. 05 056 489 001 per liter)), washed two times and then resuspended at 1:10 to 1:15 dilution in the same buffer. Cell disruption was performed by stirring the suspension in a Parr vessel #4637 at 435 psi for 15 minutes, and then the suspensions were centrifuged at 1000×g for 15 minutes at 4° C. (Beckman Avanti J-HC; rotor JS-4.2). […] The P2 and P3 protein concentration was determined with the BIORAD Standard assay method with bovine serum albumin as standard and measured on the NANO-Drop 1000. […]
(§3) Membrane homogenates were resuspended and polytronised (Polytron PT1200E Kinematica AG) in Potassium Phosphate 10 mM, KCl 100 mM binding buffer at pH 7.4 to a final assay concentration determined with a previous experiment. […]

[2] = biological target: α2β2γ1 GABAA receptor subtype (Homo sapiens (Human), UniProt P47869+Q8N1C3); assay: Two-electrode voltage clamp electrophysiology in Xenopus oocytes expressing GABAA receptors (modulation of GABA EC20 current); format: cell-based
Method: Xenopus laevis oocytes at maturation stages V-VI were used for the expression of cloned mRNA encoding GABAA receptor subunits. Oocytes ready for RNA micro-injection were bought from Ecocyte, Castrop-Rauxel, Germany and stored in modified Barth's medium (composition in mM: NaCl 88, KCl 1, NaHCO3 2.4, HEPES 10, MgSO4 0.82, CaNO3 0.33, CaCl2 0.33, pH=7.5) at 20° C. until the experiment.
Oocytes were plated in 96-well plates for microinjection using the Roboinject automated instrument (MultiChannelSystems, Reutlingen, Germany). Approximately 50 nL of an aqueous solution containing the RNA transcripts for the subunits of the desired GABAA receptor subtype was injected into each oocyte. […]
Electrophysiological experiments were performed using the Roboocyte instrument (MultiChannelSystems, Reutlingen, Germany) on days 3 to 5 after the micro-injection of mRNA. […] Current traces were recorded at a digitization rate of 10 Hz during and shortly before and after the GABA application. […]
For the analysis, the digitized current traces of the first and second GABA response were superimposed and, if necessary, rescaled to equal maximal amplitudes. The ratio between the two responses during the time interval of test compound application was calculated point by point. […]

[3] = biological target: human GABAA α2β2γ1 receptor (Homo sapiens (Human), UniProt P47869+Q8N1C3); assay: Radioligand binding assay for γ1-containing GABAA subtypes, [3H]RO7239181 competition (α2β2γ1)
Method: as §1, §2, §3

Q: What does the source list for C[C@@H]1N=C(c2c(F)cccc2F)c2c(ccc(C(F)(F)F)c2Cl)-n2nc(C(=O)N3CC(OC(F)F)C3)nc21 [Example 51, [3-(difluoromethoxy)azetidin-1-yl]-[(4S)-7-chloro-6-(2,6-difluorophenyl)-4-methyl-8-(trifluoromethyl)-4H-[1,2,4]triazolo[1,5-a][1,4]benzodiazepin-2-yl]methanone]?
A: Ki [1]: 2.5 nM; Efficacy (GABA)% ([2]; % modulation of GABA EC20 = 100*(Fold increase-1), α2β2γ1 oocytes, compound at approx. 30-fold Ki): 49%; Fold increase h-GABA-A α2β2γ1 oocyte @ 30-fold Ki ([2]; Xenopus oocytes expressing α2β2γ1, compound at approx. 30-fold its Ki α2β2γ1, GABA EC20 current): 1.49; Ki ([3]; Ki h-GABAA α2β2γ1, [3H]RO7239181 competition binding, human GABAA α2β2γ1): 29.3 nM; Ki ([3]; Ki h-GABAA α2β2γ1, displacement of [3H]RO7239181, membranes of HEK293F cells expressing human receptors, means of two determinations): 29.3 nM
